Source: patent publication US20220002458A1, “ACRYLATE COPOLYMERS FOR GALENIC APPLICATIONS” (JOHANNES GUTENBERG-UNIVERSITÄT MAINZ, priority 2018, published 2022)

## Poly(methacrylic acid-co-methyl methacrylate) 1:1 [Eudragit ® L 100]
pH 2
  Solubility pH 2: −
pH 3
  Solubility pH 3: −
pH 4
  Solubility pH 4: −
pH 5
  Solubility pH 5: −
pH 6
  Solubility pH 6: +
pH 7
  Solubility pH 7: +
